# Antibody variant affinities, Ab-14 heavy chain, assay B

Antigen: PDVDLGDISGINAS, a 14-residue peptide of the SARS-CoV-2 spike HR2 region.

Parent scFv Ab-14: VH joined to VL by a 15-residue (Gly4Ser)3 linker. Changes lie in the heavy chain CDRs alone.
VH: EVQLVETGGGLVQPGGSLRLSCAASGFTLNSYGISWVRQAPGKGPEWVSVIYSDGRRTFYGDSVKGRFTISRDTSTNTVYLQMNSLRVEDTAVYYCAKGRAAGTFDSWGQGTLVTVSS
VL: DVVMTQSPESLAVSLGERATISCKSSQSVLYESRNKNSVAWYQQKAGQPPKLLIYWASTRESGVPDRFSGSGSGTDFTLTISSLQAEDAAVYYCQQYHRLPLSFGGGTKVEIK

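The starting antibody came from a phage panning campaign against this peptide. The variants were designed computationally from a first round of random CDR variants and then made and measured. Group labels follow the data file (Ctrl: baseline library sampled from a position-specific scoring matrix, with some repeated check sequences; Rand: our label for a block that the file lists under HC and that is probably the random mutants of the ten best first-round binders; En: ensemble of fine-tuned language models; GP: Gaussian process model; GPLM: also part of the Gaussian process libraries; HC: hill climbing; Gen: genetic algorithm; Gibbs: Gibbs sampling; a sequence that several methods proposed may carry one label only). The scFvs were displayed on barcoded MATa yeast, the peptide on MATalpha yeast. The frequency of each diploid, read from paired DNA barcodes, reflects how well the two displayed proteins bind. A regression on co-assayed BCL2-family reference pairs converts the normalised counts of each replicate to an apparent Kd. There are six technical replicates.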

Variants are written as CDR1, CDR2 and CDR3 of the heavy chain (limits as in the source). Parent: GFTLNSYGIS, VIYSDGRRTFYGDSVK, GRAAGTFDS. Values are log10 of the apparent Kd in nM; lower means stronger binding. A mean of the replicates is given; it leaves out those without a signal. "no signal" means that the variant was in the library but no mating with the target was seen in any replicate; the authors take this as a sign of poor binding, and no number exists. The list is sorted by this average, lowest first, undetected variants last. Of ten entries with the parent sequence, four were seen in most replicates (averages 0.34 to 2.37), three in one and three in none, so single entries are noisy. Where one sequence has several entries in the source, the replicates are pooled. Values of this round are not directly comparable with the first-round values of the same sequences. Empty control strains, which show no peptide, gave a signal in 1% of pairings with all heavy chain designs; the median was 2.08 and 95% of these signals were weaker than 0.84. No background was subtracted. The control count says in how many pairings with the empty strains this scFv gave a signal. In the paper, a design with two or fewer of six values counts as a poor binder.

CDR-H1	CDR-H2	CDR-H3	group	log10 Kd (nM), mean	seen in	control signals
GFDLDEYGIS	VIYADGRRTFYADSVK	GNLAGTFDA	En_HC	-0.97	6 of 6	0 of 18
GFDLNEYGIS	VIYADGRRSFYADSVK	GQLAGTFDV	En_HC	-0.82	6 of 6	0 of 18
GFDLNEYGIS	VIYADGRRTFYADNVK	GEVAGTFTV	En_HC	-0.74	6 of 6	0 of 18
GFDLNEYGIS	VIYADGMRTAYIDSVK	GENAGTFDI	En_Gen	-0.72	6 of 6	0 of 18
GFDLNEYGIS	VIYADGRRTAYSDSVK	GEVAGTFVT	En_HC	-0.63	6 of 6	0 of 18
GFDLNEYGIS	VIYADGQRTAYADSVK	GKVAGTFDV	En_Gen	-0.61	6 of 6	0 of 18
GFDLDEYGIS	VIYADGSRTAYADSVK	GNVAGTFDL	En_Gen	-0.58	6 of 6	0 of 18
GFDLNEYGIS	VIYADGRRTAYTDSVK	GTNAGTFDV	En_Gen	-0.55	6 of 6	0 of 18
GFTLNEYGIS	VIYSDGRRTFYADSVK	GRYAGTFDS	GP_HC	-0.54	4 of 6	0 of 18
GFSLNDYGIS	VIYSDGRRTWYGDSVK	GRTAGTFDS	GPLM_Gen	-0.54	6 of 6	1 of 18
GFDLDEYGIS	VIYADGKRTAYADSVK	GGNAGTFDQ	En_Gen	-0.48	6 of 6	0 of 18
GFDLNEYGIS	VIYADGRRTAYIDSVK	GNAAGTFDL	En_HC	-0.47	6 of 6	1 of 18
GFSLNEYGIS	VIYSDGRRTFYGDSVK	GRAAVTFDS	GPLM_HC	-0.37	6 of 6	0 of 18
GFDLNEYGIS	VIYADGRRTFYTDSVK	GNLAGTFLV	En_HC	-0.21	6 of 6	0 of 18
GFTLNEYGIS	VIYSDGRRTFYGDSVK	GREAGTFDV	GP_HC	-0.20	6 of 6	0 of 18
GFDLNEYGIS	VIYADGMRTAYSDDVK	GEVAGTFDQ	En_Gen	-0.11	6 of 6	0 of 18
GFDLDEYGIS	VIYADGMRTAYADSVK	GNNAGTFDT	En_Gen	0.02	6 of 6	0 of 18
GFDLEEYGIS	VIYADGRRTAYSDSVK	GENAGTFDV	En_HC	0.06	6 of 6	0 of 18
GFDLSEYGIS	VIYADGMRTAYADSVK	GNNAGTFDV	En_Gen	0.09	6 of 6	0 of 18
GFNLEDYGIS	VIYADGRRTFYVDSVK	GKVAGTFDL	En_HC	0.11	6 of 6	0 of 18
GFELNSYGIS	VIYSDGRRTFYSDSVK	GRTAGTFDS	GPLM_Gen	0.23	6 of 6	0 of 18
GFTLNAYGIS	VIYSDGRRTFYGDSVK	GRTAGTFDS	GPLM_Gen	0.30	2 of 6	0 of 18
GFDLNSYGIS	VIYSDGKRTFYGDSVK	GHAAGTFDL	GP_Gibbs	0.30	6 of 6	0 of 18
GFDLNSYGIS	VIYSDGRRTFYIDSVK	GKAAGTFDM	GP_HC	0.30	6 of 6	0 of 18
GFELNEYGIS	VIYSDGRRTFYVDSVK	GRQAGTFDS	GP_Gibbs	0.30	6 of 6	0 of 18
GFSLNSYGIS	VIYSDGRRTFYGDSVK	GRVAGTFDT	GPLM_Gen	0.31	6 of 6	0 of 18
GFSLNSYGIS	VIYSDGRRTFYGDSVK	GHIAGTFDS	GP_Gibbs	0.37	6 of 6	2 of 18
GFTLNEYGIS	VIYSDGRRTFYGDSVK	GRAAVTFNQ	GP_HC	0.49	6 of 6	0 of 18
GFDLNEYGIS	VIYADGMRTAYADSVK	GNAAGTFDV	En_Gen	0.53	6 of 6	0 of 18
GFGLNEYGIS	VIYSDGRRTFYGDSVK	GQAAGTFDK	GPLM_Gen	0.53	6 of 6	2 of 18
GFELNSYGIS	VIYSDGRRTFYGDSVK	GQTAGTFDQ	GP_Gen	0.57	6 of 6	0 of 18
GFDLNEYGIS	VIYADGSRTFYSDSVK	GNQAGTFDF	En_HC	0.59	6 of 6	0 of 18
GFDLNEYGIS	VIYSDGRRTFYGDQVK	GEAAGTFDK	GP_Gibbs	0.63	6 of 6	0 of 18

The remaining entries, values ahead:

log10 Kd (nM), mean	seen in	control signals	CDR-H1	CDR-H2	CDR-H3	group
0.67	6 of 6	0 of 18	GFSLNSYGIS	VIYSDGRRTFYADSVK	GKAAGTFDS	GPLM_Gen
0.69	6 of 6	0 of 18	GFDLNEYGIS	VIYADGVRTAYSDSVK	GNNAGTFDM	En_Gen
0.73	6 of 6	0 of 18	GFTLNSYGIS	VIYSDGRRTFYSDSVK	GKLAGTFDT	GPLM_Gibbs
0.90	6 of 6	0 of 18	GFSLNEYGIS	VIYSDGRRTFYADSVK	GNAAGTFDS	GPLM_Gen
0.91	6 of 12	2 of 36	GFTLDSYGIS	VIYSDGRRTFYGDSVK	GHVAGTFDS	Ctrl+GP_Gibbs
0.91	1 of 6	0 of 18	GDTLRSYGIS	VIYSDGQRTAYGDSVK	GRAAGTFDS	Ctrl
0.93	6 of 6	0 of 18	GFSLNSYGIS	VIYSDGRRTFYGDSVK	GRMAGTFDT	GPLM_Gibbs
0.95	6 of 6	0 of 18	GFSLNSYGIS	VIYSDGRRTFYIDSVK	GHVAGTFDS	GPLM_Gibbs
1.35	1 of 6	0 of 18	GFTLNSYGIS	VIYSDGRRTFYGQSVK	GRAAGTFDS	Ctrl
1.39	4 of 6	0 of 18	GFELNSYGIS	VIYSDGRRTFYVDSVK	GQAAGTFDS	GPLM_Gen
1.41	1 of 6	0 of 18	GFDLNSYGIS	VIYSDGRRTFYGDSVK	GRTAQTFDS	GP_HC
1.55	6 of 6	0 of 18	GFTLNDYGIS	VIYSDGRRTFYDDSVK	GRAAGTFWS	GPLM_HC
1.59	6 of 6	0 of 18	GFDLNEYGIS	VIYADGLRTFYTDSVK	GENAGTFDW	En_HC
1.64	6 of 6	1 of 18	GFELNSYGIS	VIYSDGRRTFYGDSVK	GRMAGTFDS	GPLM_Gibbs
1.73	6 of 6	1 of 18	GFTLNEYGIS	VIYSDGRRTFYGDSVK	GRAAGTFGT	GP_HC
1.77	5 of 6	0 of 18	GFHLESYGIS	VIYSDGRRTFYTDSVK	GRAAGTFDS	Ctrl
2.04	6 of 6	1 of 18	GFTLNSYGIS	VIYSDGRRTFYADQVK	GKAAGTFDS	GP_Gibbs
2.09	1 of 6	0 of 18	GFNLDEYGIS	VIYADGMRTVYADNVK	GQNVGFTVF	En_Gibbs
2.12	1 of 6	0 of 18	GFTLNEYGIS	VIWSDGRRQFYGDSVK	GRAAGTFDS	Ctrl
2.55	1 of 6	0 of 18	GFSLNSYGIS	VIYSDGRRTFYVDSVK	GRTAGTFDA	GP_Gen
3.05	2 of 6	1 of 18	GFTLNSYGIS	VIYSDGRRCFYGDSVK	GMAAGTFDS	Ctrl
no signal	0 of 6	0 of 18	GKKLDEYGIS	VIYADGVRSHYAESVK	GLHGTYLVA	En_Gibbs
no signal	0 of 6	0 of 18	GFTLYDYGIS	VIYSDGRITQYIDSVK	GRAAGTFCS	Rand
no signal	0 of 6	0 of 18	GFTLNSYGIS	VPYADDIRTFYGDSVK	GRAAGTNKS	Rand
no signal	0 of 6	0 of 18	GFTLNSYGIH	VIYSTGRRTFYTDSVK	GRAAGTFDS	Ctrl
no signal	0 of 6	0 of 18	GFDVDEYGIS	VIYADGRRSQYANSVK	GAIGGTFDM	En_Gibbs
no signal	0 of 6	0 of 18	GFTLNDYGIS	VIYSDGRRTFYGDSVK	GRTAGTFFS	GPLM_HC
no signal	0 of 6	0 of 18	GFTLDSYGIS	VDYSDGRRTFYGDSVK	GRAAGTALS	Rand
no signal	0 of 6	0 of 18	GFTLNSYHIE	VIYSDGRRTFYDDSVK	GQLAGTFDS	Rand
no signal	0 of 6	0 of 18	GMTLNEYGIS	VIYSDGRRTFIGDSVK	GEAAGTFLS	Ctrl
no signal	0 of 6	0 of 18	GYNLNEYGVS	VIYSDGRRTFYGDSVK	GRAAGTFDS	Ctrl
no signal	0 of 6	0 of 18	GFTLNSYGIS	VIYSDGRRTFYGDQVK	GRNAGTFHS	Ctrl
no signal	0 of 6	0 of 18	EFDLQEYGIS	VIYADGKREAYKDNFK	GNGAGTFDA	En_Gibbs
no signal	0 of 6	0 of 18	GESLEEYGIS	VIYADGRRTAYADNVK	GMSGNFGMF	En_Gibbs

Again, the first 8 entries without any signal:

{"CDR-H1": "GKKLDEYGIS", "CDR-H2": "VIYADGVRSHYAESVK", "CDR-H3": "GLHGTYLVA", "group": "En_Gibbs", "log10 Kd (nM), mean": "no signal", "seen in": "0 of 6", "control signals": "0 of 18"}
{"CDR-H1": "GFTLYDYGIS", "CDR-H2": "VIYSDGRITQYIDSVK", "CDR-H3": "GRAAGTFCS", "group": "Rand", "log10 Kd (nM), mean": "no signal", "seen in": "0 of 6", "control signals": "0 of 18"}
{"CDR-H1": "GFTLNSYGIS", "CDR-H2": "VPYADDIRTFYGDSVK", "CDR-H3": "GRAAGTNKS", "group": "Rand", "log10 Kd (nM), mean": "no signal", "seen in": "0 of 6", "control signals": "0 of 18"}
{"CDR-H1": "GFTLNSYGIH", "CDR-H2": "VIYSTGRRTFYTDSVK", "CDR-H3": "GRAAGTFDS", "group": "Ctrl", "log10 Kd (nM), mean": "no signal", "seen in": "0 of 6", "control signals": "0 of 18"}
{"CDR-H1": "GFDVDEYGIS", "CDR-H2": "VIYADGRRSQYANSVK", "CDR-H3": "GAIGGTFDM", "group": "En_Gibbs", "log10 Kd (nM), mean": "no signal", "seen in": "0 of 6", "control signals": "0 of 18"}
{"CDR-H1": "GFTLNDYGIS", "CDR-H2": "VIYSDGRRTFYGDSVK", "CDR-H3": "GRTAGTFFS", "group": "GPLM_HC", "log10 Kd (nM), mean": "no signal", "seen in": "0 of 6", "control signals": "0 of 18"}
{"CDR-H1": "GFTLDSYGIS", "CDR-H2": "VDYSDGRRTFYGDSVK", "CDR-H3": "GRAAGTALS", "group": "Rand", "log10 Kd (nM), mean": "no signal", "seen in": "0 of 6", "control signals": "0 of 18"}
{"CDR-H1": "GFTLNSYHIE", "CDR-H2": "VIYSDGRRTFYDDSVK", "CDR-H3": "GQLAGTFDS", "group": "Rand", "log10 Kd (nM), mean": "no signal", "seen in": "0 of 6", "control signals": "0 of 18"}

Reference: Li et al. 2023, doi:10.1038/s41467-023-39022-2. File: FLAb, binding data.